Consider 1 molecule from ChEMBL document CHEMBL6134779, “Design of Proteolytic-Resistant Antifungal Peptides by Utilizing Minimum d-Amino Acid Ratios” (J Med Chem, 2024).

This series can be described thus: Hemolytic activity in human red blood cells assessed as hemolysis incubated for 1 hr. In kind it is toxicity, cell-based, Erythrocyte.

SMILES strings stand for the structures.

For `CC[C@H](C)[C@H](NC(=O)CN)C(=O)NCC(=O)N[C@@H](C)C(=O)N[C@H](C(=O)N[C@@H](CC(C)C)C(=O)N[C@@H](CCCCN)C(=O)N[C@H](C(=O)N[C@@H](CC(C)C)C(=O)N[C@H](C(=O)N[C@H](C(=O)NCC(=O)N[C@@H](CC(C)C)C(=O)N1CCC[C@H]1C(=O)N[C@@H](C)C(=O)N[C@@H](CC(C)C)C(=O)N[C@H](C(=O)N[C@@H](CO)C(=O)N[C@@H](Cc1c[nH]c2ccccc12)C(=O)N[C@H](C(=O)N[C@@H](CCCCN)C(=O)N[C@@H](CCCNC(=N)N)C(=O)N[C@@H](CCCCN)C(=O)N[C@@H](CCCNC(=N)N)C(=O)N[C@@H](CCC(N)=O)C(=O)N[C@@H](CCC(N)=O)C(N)=O)[C@@H](C)CC)[C@@H](C)CC)[C@@H](C)O)[C@@H](C)O)C(C)C)C(C)C` [MELITTIN], the HC50 (usually the concentration giving 50% haemolysis) at 1 h amounted to 4 µM.
